Our source for the Ki values is BindingDB's records for doi:10.1111/j.1476-5381.1995.tb14977.x (Syntex Discovery Research, 1995).

Chains of the proteins cited; added tags and fusions are not shown. Lines headed by an entry give the natural chain unless they say otherwise; changes in a name come on top.
UniProt P28223, whole entry: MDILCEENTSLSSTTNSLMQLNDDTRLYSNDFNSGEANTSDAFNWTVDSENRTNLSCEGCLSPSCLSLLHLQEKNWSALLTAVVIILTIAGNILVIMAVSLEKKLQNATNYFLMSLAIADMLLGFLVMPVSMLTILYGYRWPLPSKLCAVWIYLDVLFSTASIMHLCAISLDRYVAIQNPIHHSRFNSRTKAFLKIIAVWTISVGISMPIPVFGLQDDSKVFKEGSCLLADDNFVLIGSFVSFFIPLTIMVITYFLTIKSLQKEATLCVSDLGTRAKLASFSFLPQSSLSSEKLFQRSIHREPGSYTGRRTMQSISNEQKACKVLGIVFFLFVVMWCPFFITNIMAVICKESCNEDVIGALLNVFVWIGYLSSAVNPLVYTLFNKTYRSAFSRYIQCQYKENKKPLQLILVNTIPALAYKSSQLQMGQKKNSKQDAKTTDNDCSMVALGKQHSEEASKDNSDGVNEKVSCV
UniProt P41595, whole entry: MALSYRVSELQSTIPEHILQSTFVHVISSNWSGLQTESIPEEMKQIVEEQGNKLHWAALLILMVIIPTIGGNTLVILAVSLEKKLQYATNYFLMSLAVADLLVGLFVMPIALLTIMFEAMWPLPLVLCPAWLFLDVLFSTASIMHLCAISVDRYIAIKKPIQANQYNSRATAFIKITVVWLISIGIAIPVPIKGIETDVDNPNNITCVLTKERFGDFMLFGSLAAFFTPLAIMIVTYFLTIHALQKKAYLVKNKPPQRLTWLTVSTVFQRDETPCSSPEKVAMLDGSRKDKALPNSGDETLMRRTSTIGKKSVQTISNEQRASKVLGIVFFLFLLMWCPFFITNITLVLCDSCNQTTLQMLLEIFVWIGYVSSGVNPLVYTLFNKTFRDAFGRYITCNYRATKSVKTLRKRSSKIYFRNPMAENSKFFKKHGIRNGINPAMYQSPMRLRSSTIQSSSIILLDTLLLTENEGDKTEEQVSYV
UniProt P28335: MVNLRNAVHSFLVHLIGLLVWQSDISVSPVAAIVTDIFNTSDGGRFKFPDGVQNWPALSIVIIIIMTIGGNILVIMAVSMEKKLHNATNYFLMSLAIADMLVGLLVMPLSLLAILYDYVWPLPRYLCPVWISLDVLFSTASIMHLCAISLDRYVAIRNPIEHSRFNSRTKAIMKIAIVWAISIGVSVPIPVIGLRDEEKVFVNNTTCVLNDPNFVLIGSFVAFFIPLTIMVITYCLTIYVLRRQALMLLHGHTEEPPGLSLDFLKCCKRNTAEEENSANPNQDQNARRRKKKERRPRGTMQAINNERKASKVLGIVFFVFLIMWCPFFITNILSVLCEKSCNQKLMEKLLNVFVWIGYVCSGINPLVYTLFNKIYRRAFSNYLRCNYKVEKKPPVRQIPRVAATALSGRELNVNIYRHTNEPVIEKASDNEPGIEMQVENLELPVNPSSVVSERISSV
UniProt P14842, whole entry: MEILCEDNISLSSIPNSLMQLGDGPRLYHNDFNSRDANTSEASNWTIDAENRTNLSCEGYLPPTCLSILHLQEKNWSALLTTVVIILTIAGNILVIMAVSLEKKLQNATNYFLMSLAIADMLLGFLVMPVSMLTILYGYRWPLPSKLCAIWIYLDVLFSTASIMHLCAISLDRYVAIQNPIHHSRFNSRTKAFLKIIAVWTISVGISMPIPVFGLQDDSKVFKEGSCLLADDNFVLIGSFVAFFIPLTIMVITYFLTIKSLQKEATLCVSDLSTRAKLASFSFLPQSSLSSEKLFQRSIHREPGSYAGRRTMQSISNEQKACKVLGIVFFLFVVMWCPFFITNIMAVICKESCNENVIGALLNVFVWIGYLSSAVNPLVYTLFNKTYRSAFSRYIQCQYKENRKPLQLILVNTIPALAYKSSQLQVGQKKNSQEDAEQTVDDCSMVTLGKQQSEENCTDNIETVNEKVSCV
UniProt P30994, whole entry: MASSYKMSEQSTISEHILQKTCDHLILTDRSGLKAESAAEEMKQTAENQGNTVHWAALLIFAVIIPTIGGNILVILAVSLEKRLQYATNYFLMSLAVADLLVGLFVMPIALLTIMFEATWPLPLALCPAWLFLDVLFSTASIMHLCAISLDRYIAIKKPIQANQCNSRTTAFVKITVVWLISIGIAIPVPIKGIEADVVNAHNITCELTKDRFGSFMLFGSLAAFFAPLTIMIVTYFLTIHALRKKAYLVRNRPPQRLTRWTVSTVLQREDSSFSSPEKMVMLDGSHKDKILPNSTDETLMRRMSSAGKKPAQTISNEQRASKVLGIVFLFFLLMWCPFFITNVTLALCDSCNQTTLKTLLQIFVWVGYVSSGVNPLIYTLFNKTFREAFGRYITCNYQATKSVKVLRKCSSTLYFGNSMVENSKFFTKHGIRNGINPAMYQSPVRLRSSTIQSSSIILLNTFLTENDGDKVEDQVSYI

Where “and” joins values, the source holds several entries; their conditions need not be identical. Identical values can stand only once.

Assay [1] deals with 5-hydroxytryptamine receptor 2A (Homo sapiens, UniProt P28223).
The target in assay [2] is 5-hydroxytryptamine receptor 2B (Homo sapiens, UniProt P41595).
The target of assay [3] is 5-hydroxytryptamine receptor 2C (Homo sapiens, UniProt P28335).
For assay [4], the target named is 5-hydroxytryptamine receptor 2A (Rattus norvegicus, UniProt P14842).
In assay [5] the target is T1, 5-hydroxytryptamine receptor 2C (Rattus norvegicus, UniProt P08909).
T1 sequence (P08909 whole entry): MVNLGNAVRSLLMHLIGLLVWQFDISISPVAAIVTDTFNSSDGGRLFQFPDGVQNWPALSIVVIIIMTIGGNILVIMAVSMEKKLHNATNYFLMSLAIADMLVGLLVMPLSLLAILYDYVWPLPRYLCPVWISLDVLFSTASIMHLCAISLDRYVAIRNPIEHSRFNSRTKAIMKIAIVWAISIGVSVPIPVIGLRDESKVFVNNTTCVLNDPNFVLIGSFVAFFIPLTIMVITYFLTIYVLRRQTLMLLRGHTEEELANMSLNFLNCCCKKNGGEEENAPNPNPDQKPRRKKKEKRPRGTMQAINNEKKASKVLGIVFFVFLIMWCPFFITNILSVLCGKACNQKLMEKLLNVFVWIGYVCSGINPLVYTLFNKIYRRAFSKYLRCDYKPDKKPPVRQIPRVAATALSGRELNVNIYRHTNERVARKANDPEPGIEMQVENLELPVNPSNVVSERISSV

Assay [6] has as its target 5-hydroxytryptamine receptor 2B (Rattus norvegicus, UniProt P30994).

As for `Clc1cccc(N2CCNCC2)c1` [mCPP], the Ki was 398 nM and 50.1 nM in assay [1]; 31.6 nM in assay [2]; 251 nM in assay [3].
Turning to `O=C(CCCN1CCC2(CC1)C(=O)NCN2c1ccccc1)c1ccc(F)cc1` [8-[4-(4-fluorophenyl)-4-oxidanylidene-butyl]-1-phenyl-1,3,8-triazaspiro[4.5]decan-4-one], the Ki was determined as 0.31 nM in assay [4], 794 nM in assay [5] and 3160 nM in assay [6].
As to `COC(=O)[C@@H]1[C@H]2C[C@H]3c4[nH]c5ccccc5c4CCN3C[C@@H]2CC[C@@H]1O` [yohimbic acid methyl ester], the Ki in assay [3] was > 10000 nM.
